Chains of the proteins cited; added tags and fusions are not shown.
UniProt Q99705, whole entry: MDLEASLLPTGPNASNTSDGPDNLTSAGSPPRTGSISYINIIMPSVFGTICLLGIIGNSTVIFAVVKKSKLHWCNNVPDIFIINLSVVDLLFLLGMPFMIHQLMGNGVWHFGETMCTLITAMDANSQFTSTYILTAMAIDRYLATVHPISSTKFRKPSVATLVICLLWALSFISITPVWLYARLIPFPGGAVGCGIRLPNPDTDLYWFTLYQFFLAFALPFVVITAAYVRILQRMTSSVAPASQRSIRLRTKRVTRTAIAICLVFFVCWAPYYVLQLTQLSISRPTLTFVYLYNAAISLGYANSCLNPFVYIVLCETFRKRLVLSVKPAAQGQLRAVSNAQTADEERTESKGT

According to US8329704B2, “Substituted pyrazinone derivatives for use in MCH-1 mediated diseases” (Janssen Pharmaceutica, N.V., priority 2005, dated 2012):

Each compound was assayed against human MCH-1 receptor (Homo sapiens, UniProt Q99705) (assay: Ca2+ mobilization experiment for the MCH-1 receptor (FLIPR), inhibition of MCH-induced Ca2+ mobilization). Settings: CHO cells stably expressing human MCH-1 receptor, inhibition of MCH-induced Ca2+ response.
Method: The interaction of the compounds of Formula (I) with MCH-1 receptors was assessed in in vitro transient calcium (Ca^2+) mobilization assays in the fluorimetric imaging plate reader (FLIPR) format (Sullivan et al. 1999, Methods Mol Biol 114:125-133). In general, the natural agonist (MCH) is incubated with cells expressing the MCH-1 receptor, which elicits a concentration-dependent transient mobilization of Ca^2+ from internal stores. The interaction of the test compounds with the receptor is assessed in competition experiments. Various concentrations of the test compound are added to the incubation mixture containing the receptor-expressing cells and a submaximal concentration of MCH. The test compound in proportion to its antagonist potency and its concentration inhibits MCH-induced Ca^2+ mobilization.
Chinese Hamster ovary cells (CHO) stably expressing the human MCH-1 receptor are grown in a 1:1 mixture of Dulbecco's Modified Eagles Medium (DMEM) and HAM's F12 medium including Glutamax™ (Invitrogen), supplemented with 10% heat-inactivated fetal bovine serum and 400 μg/ml geneticin.
Twenty-four hours before the experiment, MCH-1 receptor-expressing CHO cells are seeded in 20 μl (5,000 cells per well) into 384-well black wall, clear bottom microtiter plates (Costar). On the day of the experiment, 20 μl per well calcium assay kit containing 10 mM probenicide (Molecular Devices) is added. Cells are loaded for 90 min at 37° C. and 5% CO2 in a cell culture incubator. After loading, 20 μl of serial dilutions of the test compound are added and cells are further incubated for 20 min at room temperature in the dark. After 20 min, 20 μl of a submaximal MCH concentration is added and changes in intracellular calcium are recorded directly in a FLIPR III apparatus (Molecular devices).
Data from assays in the presence of compound were calculated as a percentage of total Ca^2+-responses measured in the absence of test compound. Inhibition curves, plotting percent of total Ca^2+-responses versus the log value of the concentration of the test compound, were automatically generated, and sigmoidal inhibition curves were fitted using non-linear regression. The pIC50 values of test compounds were derived from individual curves.
With `O=c1c(NCCOc2ccccc2)nccn1-c1ccc(N2CCC(O)CC2)nc1` the “MCH-1 pIC50” value was 6.4.
In the case of `O=c1c(NCCOc2ccccc2)nccn1-c1ccc2nc(CN3CCCC3)ccc2c1`, the “MCH-1 pIC50” value is reported as 7.4.
In the case of `COc1cc(-n2ccnc(Nc3ccc(-c4ccccc4)cc3)c2=O)ccc1OCCN1CCCC1`, the “MCH-1 pIC50” value is reported as 6.6.
In the case of `COc1cc(-n2ccnc(NCCc3ccccn3)c2=O)ccc1OCCN1CCCC1`, the “MCH-1 pIC50” value is reported as 6.8.
For `COc1cc(-n2ccnc(NCC3CCc4ccccc4O3)c2=O)ccc1OCCN1CCCC1` (stereo not shown), the “MCH-1 pIC50” value was 6.4.
`COc1cc(-n2ccnc(NCCOc3ccccn3)c2=O)ccc1OCCN1CCCC1` was tested, and the “MCH-1 pIC50” value was 6.6.
For `COc1cc(-n2ccnc(NCCc3ccccc3Cl)c2=O)ccc1OCCN(C)C(C)=O`, the “MCH-1 pIC50” value was 6.7.
`CNC1CCN(c2ccc(-n3ccnc(NCCc4ccccn4)c3=O)cc2OC)C1` (stereo not shown) was tested, and the “MCH-1 pIC50” value was 6.5.
With `CN1CCN(c2ccc(-n3ccnc(NCCc4ccc(F)cc4)c3=O)cc2Cl)CC1` the “MCH-1 pIC50” value was 7.5.
For `COc1cc(-n2ccnc(NCCc3ccccc3)c2=O)ccc1OCC(C)N1CCOCC1` (stereo not shown), the “MCH-1 pIC50” value was 7.3.
With `COc1cc(-n2ccnc(NCCc3cccnc3)c2=O)ccc1OCCN1CCCC1` the “MCH-1 pIC50” value was 6.8.
`COc1cc(-n2ccnc(N3CCc4ccccc4C3)c2=O)ccc1OCCN1CCCC1` was tested, and the “MCH-1 pIC50” value was 5.1.
In the case of `O=c1c(NCCc2ccc(F)cc2)nccn1-c1ccc(OCCN2CCC(O)C2)c(Cl)c1` (stereo not shown), the “MCH-1 pIC50” value is reported as 7.5.
For `COc1cc(-n2ccnc(NCCOc3ccccc3Cl)c2=O)ccc1OCCN(C)C(C)=O`, the “MCH-1 pIC50” value was 6.5.
`COc1cc(-n2ccnc(NC3Cc4ccccc4C3)c2=O)ccc1OCCN1CCCC1` was tested, and the “MCH-1 pIC50” value was 6.5.
With `COc1cc(-n2ccnc(SCCc3ccccn3)c2=O)ccc1OCCN1CCCC1` the “MCH-1 pIC50” value was 7.1.
In the case of `COc1cc(-n2ccnc(NCCCOc3ccccn3)c2=O)ccc1OCCN1CCCC1`, the “MCH-1 pIC50” value is reported as 7.2.
With `O=c1c(NCCOc2ccc(F)cc2)nccn1-c1ccc(OC2CCNC2)c(Cl)c1` (stereo not shown) the “MCH-1 pIC50” value was 6.8.
For `COc1cc(-n2ccnc(Sc3ccc4ccccc4c3)c2=O)ccc1OCCN1CCCC1`, the “MCH-1 pIC50” value was 6.5.
`O=c1c(NCCc2ccccn2)nccn1-c1ccc(OCCN2CCC(F)CC2)c(Cl)c1` was tested, and the “MCH-1 pIC50” value was 7.1.
For `COc1cc(-n2ccnc(NCC3Oc4ccccc4O3)c2=O)ccc1OCCN1CCCC1`, the “MCH-1 pIC50” value was 7.0.
For `O=c1c(NCCOc2ccc(F)cc2)nccn1-c1ccc(OCCN2CCC(O)C2)c(Cl)c1` (stereo not shown), the “MCH-1 pIC50” value was 6.5.
For `COc1cc(-n2ccnc(NCCc3ccccc3)c2=O)ccc1OCC(C)N1CCCC1` (stereo not shown), the “MCH-1 pIC50” value was 7.4.
`O=c1c(NCCc2ccc(F)cc2)nccn1-c1ccc(OC2CCNC2)c(Cl)c1` (stereo not shown) was tested, and the “MCH-1 pIC50” value was 7.3.
For `COc1cc(-n2ccnc(SCCc3ccc(Cl)cc3)c2=O)ccc1OCCN1CCCC1`, the “MCH-1 pIC50” value was 7.2.
`COc1cc(-n2ccnc(NCCOc3ccccc3)c2=O)ccc1OC(C)CN(C)C` (stereo not shown) was tested, and the “MCH-1 pIC50” value was 7.2.
For `COc1cc(-n2ccnc(NCCOc3ccccc3)c2=O)ccc1OCC(C)N(C)C` (stereo not shown), the “MCH-1 pIC50” value was 7.2.
`O=c1c(NCCOc2ccccc2)nccn1-c1ccc(NCCN2CCCC2)nc1` was tested, and the “MCH-1 pIC50” value was 6.5.
